Laboratory results reported in patent US5750562A (priority 1995, dated 1998).

Test system: MCF7-ADR (resistant)
Experiment: Cytotoxicity, MCF7-ADR (resistant)
Assay type: cell-based, human
Conditions: exposition time 72 h, RPMI 1640 + 20 mM HEPES + 2 mM L-glutamine

| Structure (SMILES) | IC50 [µM] |
| --- | --- |
| CC(=O)O[C@@]12CO[C@@H]1C[C@H](O)[C@@]1(C)C(=O)C(=O)C3=C(C)[C@@H](OC(=O)[C@H](O)[C@H](CC(C)C)NC(=O)OC(C)(C)C)C[C@@](O)([C@@H](OC(=O)c4ccccc4)[C@H]21)C3(C)C [Compound 10, 13-[(2R,3S)-3-ter-butoxycarbonylamino-2-hydroxy3-isobutyl-propanoyl]-10-deacetyl-10-dehydro-baccatine III] | 0.013 |
| CC(=O)O[C@@]12CO[C@@H]1C[C@H](O)[C@@]1(C)C(=O)C(=O)C3=C(C)[C@@H](OC(=O)[C@H](O)[C@H](CC(C)C)NC(=O)OC(C)(C)C)[C@@H]4OC(=O)O[C@]4([C@@H](OC(=O)c4ccccc4)[C@H]21)C3(C)C [Compound 11, 13=[(2R,3S)-3-ter-butoxycarbonylamino-2-hydroxy-3-isobutyl-propanoyl]-10-dehydro-10-deacetyl-14β-hydroxy-baccatine III 1,14-carbonate] | 0.028 |
